## Experimental melting point values from OPERA 2.9

Data: OPERA 2.9 data sets, kmansouri/OPERA on GitHub.

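OPERA's authors assembled the values from existing databases and did not measure them anew. One number stands for a compound and property, with no spread given. Method and conditions are not stated for these values. A value may pool stereoisomers or salt forms, and the file does not say which form was measured. Unmarked limits or estimates from the upstream databases cannot be ruled out.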

The melting point is given in degrees Celsius.
The databases behind each value are named after "via".

The entry for Cc1c(Cl)cccc1NC(=O)CCl [2-chloro-N-(3-chloro-2-methylphenyl)acetamide] lists mp 72.5 °C (via OCHEM). For O=C(O)CC1c2ccccc2Oc2ccccc21 [9H-xanthen-9-ylacetic acid] the data give mp 154 °C (via OCHEM). Cc1nc2cc(F)ccc2cc1C(=O)O [7-fluoro-2-methylquinoline-3-carboxylic acid] is reported with mp 263 °C (via OCHEM). The entry for Cc1cc2oc(=O)cc(CCl)c2cc1C [4-(chloromethyl)-6,7-dimethyl-2H-chromen-2-one] lists mp 189 °C (via OCHEM). The entry for Cc1ccc2nc3ccccc3c(Cl)c2c1 [9-Chloro-2-methylacridine] lists mp 122 °C (via OCHEM). Cc1ccc(S(=O)(=O)C(C#N)c2nc3ccccc3nc2Cl)cc1 (stereo unspecified) has mp 106 °C (via OCHEM). For Cc1ccc(S(N)(=O)=O)cc1C(=O)O [2-methyl-5-sulfamoylbenzoic acid] the data give mp 182 °C (via OCHEM).

Brc1cnc(N2CCCCC2)nc1OCc1ccccc1 [4-(Benzyloxy)-5-bromo-2-(piperidin-1-yl)pyrimidine] has mp 106.5 °C (via OCHEM). For Nc1ccccc1C(=O)NCc1ccco1 [2-amino-N-(furan-2-ylmethyl)benzamide] the data give mp 77 °C (via OCHEM). O=S(=O)(CCCl)c1ccc(Br)cc1 [Sulfone, p-bromophenyl 2-chloroethyl] has mp 111 °C (via OCHEM). For Nn1c(COc2ccccc2)n[nH]c1=S the data give mp 165 °C (via OCHEM). O=Cc1cc(Br)c2c(c1)OCO2 [7-Bromo-2H-1,3-benzodioxole-5-carbaldehyde] is reported with mp 118 °C (via OCHEM). CCOC(=O)[C@H](CCc1ccccc1)N[C@@H](C)C(=O)O [N-[1(S)-Ethoxycarbonyl-3-phenylpropyl]-L-alanine] is reported with mp 150 °C (via eChemPortal). Cc1c(C(=O)O)oc2c1C(=O)CCC2 has mp 228 °C (via OCHEM).

Listed for CN(C)S(=O)(=O)c1ccc(Br)c(C(=O)O)c1 [2-Bromo-5-(dimethylsulfamoyl)benzoic acid]: mp 175 °C (via OCHEM). Listed for Nc1nc2c(s1)COc1ccccc1-2 [4H-chromeno[4,3-d]thiazol-2-amine]: mp 191 °C (via OCHEM). Cc1ccc(N)c(OCc2ccccc2)c1 [2-(benzyloxy)-4-methylaniline] is reported with mp 69 °C (via OCHEM). ClCc1nnc(-c2ccccc2)o1 [2-(chloromethyl)-5-phenyl-1,3,4-oxadiazole] is reported with mp 95 °C (via OCHEM). O=C(O)CCCc1ccc(Cl)cc1 [4-(4-Chlorophenyl)butyric acid] is reported with mp 59 °C (via OCHEM). O=C(CCl)Nc1ccc(Cl)c(Cl)c1 [2-chloro-N-(3,4-dichlorophenyl)acetamide] is reported with mp 104 °C (via OCHEM). Listed for COc1ccc(C#N)c(F)c1F [2,3-Difluoro-4-methoxybenzonitrile]: mp 83.5 °C (via OCHEM).

For COc1ccc(C(NC(=O)CCl)c2ccc(OC)cc2)cc1 [N-[bis(4-methoxyphenyl)methyl]-2-chloroacetamide] the data give mp 119 °C (via OCHEM). For Nc1ccccc1OCCOc1ccccc1N [2,2'-[Ethane-1,2-diylbis(oxy)]dianiline] the data give mp 132 °C (via eChemPortal). CN(C)C=C1C(=O)CCCC1=O [2-[(Dimethylamino)methylene]-1,3-cyclohexanedione] is reported with mp 112 °C (via OCHEM). The entry for O=C(O)C1CCN(S(=O)(=O)c2ccccc2)CC1 [1-(Benzenesulfonyl)piperidine-4-carboxylic acid] lists mp 157 °C (via OCHEM). O=C(O)c1cc(-c2ccncc2)nc2ccccc12 [Cinchoninic acid, 2-(4-pyridyl)-] is reported with mp 309 °C (via OCHEM). O=C(O)c1oc2ccccc2c1COc1ccccc1 [3-(Phenoxymethyl)-2-benzofurancarboxylic acid] is reported with mp 164 °C (via OCHEM). The entry for NC1c2ccccc2-c2ccccc21 [9-Aminofluorene] lists mp 44 °C (via OCHEM).

Listed for O=C(O)CCC(=O)c1ccc2ccccc2c1 [4-(2-Naphthyl)-4-oxobutanoic acid]: mp 173 °C (via OCHEM). S=c1ncn(-c2ccccc2)[nH]1 [1,2-Dihydro-1-phenyl-3H-1,2,4-triazole-3-thione] is reported with mp 174 °C (via OCHEM). Listed for CCN(CC)c1nc(=O)cc(C)[nH]1 [2-(Diethylamino)-6-methyl-1H-pyrimidin-4-one]: mp 134 °C (via eChemPortal). For CC(=O)O.CCCCCCCCCCCCCC/C=C\CCNCCCNCCCN the data give mp 144 °C (via eChemPortal). Listed for O=C(O)COc1cccc2cccnc12 [(Quinolin-8-yloxy)-acetic acid]: mp 126 °C (via OCHEM). NC1=NCN([C@@H]2O[C@H](CO)[C@@H](O)[C@H]2O)C(=O)N1 [5,6-Dihydro-5-azacytidine] is reported with mp 183.6 °C (via PubChem). Cn1c(-c2ccccc2)c(C(=O)O)c2ccccc21 [1-methyl-2-phenyl-1H-indole-3-carboxylic acid] has mp 193 °C (via OCHEM).

Listed for COC(=O)c1ccc(C(F)(F)F)cc1N [Methyl 2-amino-4-(trifluoromethyl)benzoate]: mp 59 °C (via OCHEM). The entry for O=C(O)c1cccn1Cc1ccccc1 [1-Benzyl-1H-pyrrole-2-carboxylic acid] lists mp 125 °C (via OCHEM). Nc1ccc2c(c1)NC(=O)CS2 [6-amino-2H-1,4-benzothiazin-3(4H)-one] has mp 220 °C (via OCHEM). The entry for COc1ccc(-c2csc(C)n2)cc1 [4-(4-Methoxy-phenyl)-2-methyl-thiazole] lists mp 56 °C (via OCHEM). O=C(O)C=Cc1cc(Br)ccc1F [3-(5-Bromo-2-fluorophenyl)-2-propenoic acid] is reported with mp 194.5 °C (via OCHEM). CNS(=O)(=O)c1ccc(C(C)=O)cc1 has mp 110 °C (via OCHEM). The entry for CCCCCCCCCCCCCCCCC(CO)CCCCCCCCCCCCCC (stereo unspecified) [1-Octadecanol, 2-tetradecyl-] lists mp 39 °C (via eChemPortal).

O=C1CC(=O)Nc2ccccc2N1 [1H-1,5-Benzodiazepine-2,4(3H,5H)-dione] is reported with mp 384 °C (via OCHEM). For CCOC(=O)c1nn(-c2ccccc2)cc1O [ethyl 4-hydroxy-1-phenyl-1H-pyrazole-3-carboxylate] the data give mp 87 °C (via OCHEM). Nc1nc(-c2ccc(C3CCCCC3)cc2)cs1 [4-(4-cyclohexylphenyl)-1,3-thiazol-2-amine] is reported with mp 228 °C (via OCHEM). CCCCCCC(O)CCCCCCCCCCC(=O)[O-].CCCCCCC(O)CCCCCCCCCCC(=O)[O-].[Ba+2] (stereo unspecified) [Octadecanoic acid, 12-hydroxy-, barium salt (2:1)] has mp 197.7 °C (via eChemPortal). For CNC(=O)c1ccc(OC)c(N)c1 [3-Amino-4-methoxy-N-methylbenzamide] the data give mp 143 °C (via eChemPortal). Listed for Cc1nn(-c2ccccc2)c(=O)[c-]1/N=N/c1cc([N+](=O)[O-])cc(S(=O)(=O)[O-])c1[O-].Cc1nn(-c2ccccc2)c(=O)[c-]1/N=N/c1cc([N+](=O)[O-])cc(S(=O)(=O)[O-])c1[O-].[Co+3].[Na+].[Na+].[Na+]: mp 299.9 °C (via eChemPortal). For c1cnc2c(n1)CCCC2 [5,6,7,8-Tetrahydroquinoxaline] the data give mp 29.5 °C (via PubChem).

The entry for Cc1ccc(S(=O)(=O)Cl)cc1C(=O)O [5-(Chlorosulfonyl)-2-methylbenzoic acid] lists mp 150 °C (via OCHEM). Listed for COc1ccc(NC(=O)CCl)c([N+](=O)[O-])c1 [2-chloro-N-(4-methoxy-2-nitrophenyl)acetamide]: mp 99 °C (via OCHEM). CC(Br)C(=O)C12CC3CC(CC(C3)C1)C2 (stereo unspecified) [1-(1-adamantyl)-2-bromopropan-1-one] is reported with mp 87 °C (via OCHEM). O=C(O)C1(c2cccc(Br)c2)CC1 [1-(3-Bromophenyl)cyclopropane-1-carboxylic acid] has mp 144 °C (via OCHEM). COc1ccc(C=NO)cc1OC [N-[(3,4-Dimethoxyphenyl)methylidene]hydroxylamine] has mp 92 °C (via OCHEM). Cc1ccc(-c2csc(=S)[nH]2)cc1 [4-(4-methylphenyl)-1,3-thiazole-2-thiol] has mp 193 °C (via OCHEM).

Excerpt, the final 8 entries:

For Cc1nn(-c2ccccc2)c(=O)[c-]1/N=N/c1cc([N+](=O)[O-])cc(S(=O)(=O)[O-])c1[O-].Cc1nn(-c2ccccc2)c(=O)[c-]1/N=N/c1cc([N+](=O)[O-])cc(S(=O)(=O)[O-])c1[O-].[Co+3].[Na+].[Na+].[Na+] the data give mp 299.9 °C (via eChemPortal).
For c1cnc2c(n1)CCCC2 [5,6,7,8-Tetrahydroquinoxaline] the data give mp 29.5 °C (via PubChem).
For Cc1ccc(S(=O)(=O)Cl)cc1C(=O)O [5-(Chlorosulfonyl)-2-methylbenzoic acid] the data give mp 150 °C (via OCHEM).
For COc1ccc(NC(=O)CCl)c([N+](=O)[O-])c1 [2-chloro-N-(4-methoxy-2-nitrophenyl)acetamide] the data give mp 99 °C (via OCHEM).
For CC(Br)C(=O)C12CC3CC(CC(C3)C1)C2 (stereo unspecified) [1-(1-adamantyl)-2-bromopropan-1-one] the data give mp 87 °C (via OCHEM).
For O=C(O)C1(c2cccc(Br)c2)CC1 [1-(3-Bromophenyl)cyclopropane-1-carboxylic acid] the data give mp 144 °C (via OCHEM).
For COc1ccc(C=NO)cc1OC [N-[(3,4-Dimethoxyphenyl)methylidene]hydroxylamine] the data give mp 92 °C (via OCHEM).
For Cc1ccc(-c2csc(=S)[nH]2)cc1 [4-(4-methylphenyl)-1,3-thiazole-2-thiol] the data give mp 193 °C (via OCHEM).